# US7534808B2, “Indolylmaleimide derivatives” (priority 2002, dated 2009)
# Protein sequences, listed by entry. Tags and fused reporters are not part of them. Lines headed by an entry give the natural chain unless they say otherwise; changes in a name come on top.
# UniProt P24723, whole entry: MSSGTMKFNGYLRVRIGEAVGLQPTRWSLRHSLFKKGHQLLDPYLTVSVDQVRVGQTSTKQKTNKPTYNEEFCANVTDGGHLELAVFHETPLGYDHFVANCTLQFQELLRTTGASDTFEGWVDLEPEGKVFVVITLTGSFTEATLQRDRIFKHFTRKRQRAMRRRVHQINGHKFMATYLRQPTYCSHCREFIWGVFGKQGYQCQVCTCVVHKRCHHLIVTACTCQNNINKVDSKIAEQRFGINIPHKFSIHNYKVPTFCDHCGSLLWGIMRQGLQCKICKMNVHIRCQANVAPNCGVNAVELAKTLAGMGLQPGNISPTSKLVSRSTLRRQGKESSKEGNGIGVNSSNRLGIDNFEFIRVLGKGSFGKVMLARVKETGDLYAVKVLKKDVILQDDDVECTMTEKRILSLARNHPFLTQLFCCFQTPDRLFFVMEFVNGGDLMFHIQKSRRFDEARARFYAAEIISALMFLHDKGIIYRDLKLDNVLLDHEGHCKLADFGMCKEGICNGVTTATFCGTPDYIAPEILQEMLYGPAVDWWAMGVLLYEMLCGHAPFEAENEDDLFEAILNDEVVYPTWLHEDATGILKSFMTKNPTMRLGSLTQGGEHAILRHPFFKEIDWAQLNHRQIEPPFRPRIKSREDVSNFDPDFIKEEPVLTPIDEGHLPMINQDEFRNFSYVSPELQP
# UniProt Q05655, whole entry: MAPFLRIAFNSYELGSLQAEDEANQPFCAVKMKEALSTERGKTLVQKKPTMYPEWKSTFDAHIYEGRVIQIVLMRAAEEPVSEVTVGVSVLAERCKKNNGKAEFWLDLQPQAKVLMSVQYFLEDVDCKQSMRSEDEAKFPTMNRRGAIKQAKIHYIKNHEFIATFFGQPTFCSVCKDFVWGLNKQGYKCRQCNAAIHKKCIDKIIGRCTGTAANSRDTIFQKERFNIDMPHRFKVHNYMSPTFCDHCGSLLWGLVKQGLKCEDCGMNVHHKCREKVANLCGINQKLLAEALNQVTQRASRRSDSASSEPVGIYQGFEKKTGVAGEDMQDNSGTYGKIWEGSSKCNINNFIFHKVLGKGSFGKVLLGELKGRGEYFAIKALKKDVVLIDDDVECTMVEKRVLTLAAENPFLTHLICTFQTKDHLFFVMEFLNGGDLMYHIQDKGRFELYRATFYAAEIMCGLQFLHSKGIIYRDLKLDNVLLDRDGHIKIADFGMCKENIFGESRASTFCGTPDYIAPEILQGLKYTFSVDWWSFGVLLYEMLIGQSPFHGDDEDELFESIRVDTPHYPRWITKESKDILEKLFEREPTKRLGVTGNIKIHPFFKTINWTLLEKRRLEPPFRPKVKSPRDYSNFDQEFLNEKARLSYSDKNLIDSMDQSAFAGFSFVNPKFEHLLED
# UniProt P05771, whole entry: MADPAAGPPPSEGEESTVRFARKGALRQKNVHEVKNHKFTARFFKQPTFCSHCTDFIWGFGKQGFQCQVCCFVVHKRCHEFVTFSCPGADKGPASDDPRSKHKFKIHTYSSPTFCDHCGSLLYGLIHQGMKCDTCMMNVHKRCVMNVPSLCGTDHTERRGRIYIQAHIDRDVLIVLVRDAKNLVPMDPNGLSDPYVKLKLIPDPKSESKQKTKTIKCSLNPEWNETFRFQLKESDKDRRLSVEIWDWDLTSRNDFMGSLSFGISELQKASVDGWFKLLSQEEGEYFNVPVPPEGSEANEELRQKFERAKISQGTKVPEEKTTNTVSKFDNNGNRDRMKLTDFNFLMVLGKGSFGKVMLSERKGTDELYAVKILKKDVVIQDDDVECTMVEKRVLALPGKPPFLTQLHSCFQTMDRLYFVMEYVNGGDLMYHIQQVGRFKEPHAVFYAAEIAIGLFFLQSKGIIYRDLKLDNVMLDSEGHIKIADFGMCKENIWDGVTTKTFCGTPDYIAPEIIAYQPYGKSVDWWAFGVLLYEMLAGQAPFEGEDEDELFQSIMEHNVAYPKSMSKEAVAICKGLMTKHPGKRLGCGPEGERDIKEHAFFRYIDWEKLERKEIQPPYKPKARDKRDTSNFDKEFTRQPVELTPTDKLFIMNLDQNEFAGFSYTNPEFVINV
# UniProt Q04759, whole entry: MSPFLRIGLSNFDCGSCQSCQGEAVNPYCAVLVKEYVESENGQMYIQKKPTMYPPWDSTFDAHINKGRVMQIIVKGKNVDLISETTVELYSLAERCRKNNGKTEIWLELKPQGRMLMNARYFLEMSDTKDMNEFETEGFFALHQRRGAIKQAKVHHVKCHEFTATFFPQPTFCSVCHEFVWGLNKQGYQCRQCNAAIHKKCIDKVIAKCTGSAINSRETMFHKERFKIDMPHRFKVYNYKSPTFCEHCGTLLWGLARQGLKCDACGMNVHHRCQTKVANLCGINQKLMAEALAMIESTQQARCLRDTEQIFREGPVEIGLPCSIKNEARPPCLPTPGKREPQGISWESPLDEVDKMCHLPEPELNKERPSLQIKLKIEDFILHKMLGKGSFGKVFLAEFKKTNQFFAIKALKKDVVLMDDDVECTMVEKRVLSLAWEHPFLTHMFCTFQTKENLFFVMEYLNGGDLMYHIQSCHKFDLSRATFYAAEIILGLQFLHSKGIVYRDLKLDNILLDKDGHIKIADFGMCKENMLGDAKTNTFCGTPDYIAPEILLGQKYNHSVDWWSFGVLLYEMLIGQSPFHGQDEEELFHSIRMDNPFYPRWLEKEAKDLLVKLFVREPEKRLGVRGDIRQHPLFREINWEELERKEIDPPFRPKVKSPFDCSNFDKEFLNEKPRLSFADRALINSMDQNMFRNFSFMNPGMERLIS
# Tests used:
# [1] = target: Human recombinant PKCη (Homo sapiens, UniProt P24723); experiment: Protein Kinase Cη Assay
# Description: (§1) The compounds of formula I are tested for their activity on different PKC isoforms according to a published method (D. Geiges et al. Biochem. Pharmacol. 1997; 53:865-875) The assay is performed in a 96-well polypropylene microtiterplate (Costar 3794) that has been previously siliconized with Sigmacote (Sigma SL-2). The reaction mixture (50 μl) contains 10 μl of the relevant PKC isozyme together with 25 μl of the test compound and 15 μl of a mix solution that contains 200 μg/ml protamine sulfate, 10 mM Mg(NO3)2, 10 μM ATP (Boehringer 519987) and 3750 Bq of ^33P-ATP (Hartmann Analytic SFC301, 110TBq/mmol) in 20 mM Tris-buffer pH 7.4+0.1% BSA. Incubation is performed for 15 min at 32° C. in a microtiterplate shaking incubator (Biolabo Scientific Instruments). Reaction is stopped by adding 10 μl of 0.5 M Na2EDTA, pH 7.4. 50 μl of mixture are pipetted onto a pre-wetted phosphocellulose paper (Whatmann 3698-915) under gentle pressure. Non-incorporated ATP is washed away with 100 μl bi-dist H2O. The paper is washed twice in 0.5% H3PO4 for 15 min followed by 5 min in EtOH. Thereafter the paper is dryed and placed in an omnifilter (Packard 6005219), and overlayed with 10 μl/well of Microscint-O (Packard 6013611) before counting in a Topcount radioactivity counter (Packard). […] IC50 values are calculated from the graph by sigmoidal curve fitting. […]
# [2] = tested on: spleen cells from CBA and BALB/c mice; experiment: Allogeneic Mixed Lymphocyte Reaction (MLR), two-way; conditions: mouse two-way MLR, 3H-thymidine incorporation
# Description: The two-way MLR is performed according to standard procedures (J. Immunol. Methods, 1973, 2, 279 and Meo T. et al., Immunological Methods, New York, Academic Press, 1979, 227-39). Briefly, spleen cells from CBA and BALB/c mice (1.6×10^5 cells from each strain per well in flat bottom tissue culture microtiter plates, 3.2×10^5 in total) are incubated in RPMI medium containing 10% FCS, 100 U/ml penicillin, 100 μg/ml streptomycin (Gibco BRL, Basel, Switzerland), 50 μM 2-mercaptoethanol (Fluka, Buchs, Switzerland) and serially diluted compounds. Seven three-fold dilution steps in duplicates per test compound are performed. After four days of incubation 1 μCi ^3H-thymidine is added. Cells are harvested after an additional five-hour incubation period, and incorporated ^3H-thymidine is determined according to standard procedures. Background values (low control) of the MLR are the proliferation of BALB/c cells alone. Low controls are subtracted from all values. High controls without any sample are taken as 100% proliferation. Percent inhibition by the samples is calculated, and the concentrations required for 50% inhibition (IC50 values) are determined. In this assay, Compound of Example 29 has an IC50 of 28 nM.
# [3] = target: Human recombinant PKCδ (Homo sapiens, UniProt Q05655); experiment: Protein Kinase Cδ Assay
# Description: as §1
# [4] = target: Human recombinant PKCα (Homo sapiens, UniProt P17252); experiment: Protein Kinase Cα Assay
# Description: as §1
# [5] = tested on: Jurkat cells transfected with a human interleukin-2 promoter/reporter gene construct; experiment: CD28 Costimulation Assay; conditions: luciferase reporter, stimulated Jurkat cells
# Description: The assay is performed with Jurkat cells transfected with a human interleukin-2 promoter/reporter gene construct as described by Baumann G et al. in Transplant.Proc. 1992; 24:43-8, the β-galactosidase reporter gene being replaced by the luciferase gene (de Wet J., et al., Mol. Cell Biol. 1987, 7(2), 725-737). Cells are stimulated by solid phase-coupled antibodies or phorbol myristate acetate (PMA) and the Ca^++ ionophore ionomycin as follows. For antibody-mediated stimulation Microlite TM1 microtiter plates (Dynatech) are coated with 3 μg/ml goat anti-mouse IgG Fc antibodies (Jackson) in 55 μl phosphate-buffered saline (PBS) per well for three hours at RT. Plates are blocked after removing the antibodies by incubation with 2% bovine serum albumin (BSA) in PBS (300 μl per well) for 2 hours at RT. […] After incubation for 5.5 hours at 37° C. in 5% CO2, the level of luciferase is determined by bioluminescence measurement. […] Luciferase activity is assessed with a bioluminescence reader (Labsystem, Helsinki, Finland) after automatic addition of 50 μl per well luciferase reaction buffer containing 20 mM Tricine, 1.07 mM (MgCO3)4Mg(OH)2×5H2O, 2.67 mM MgSO4, 0.1 mM EDTA, 33.3 mM DTT, 270 μM coenzyme A, 470 μM luciferin (Chemie Brunschwig AG), 530 μM ATP, pH 7.8. […] The inhibition obtained in the presence of a test compound is calculated as percent inhibition of the high control. […]
# [6] = tested on: (Wistar/F×Fischer 344)F1 hybrid rats; experiment: Graft v. Host Model; conditions: 30 mg/kg/day bid, days 0-3, lymph nodes removed day 7
# Description: Spleen cells (2×10^7) from Wistar/F rats are injected subcutaneously into the right hind footpad of (Wistar/F×Fischer 344)F1 hybrid rats. The left footpad is left untreated. The animals are treated with the test compounds on 4 consecutive days (0-3). The popliteal lymph nodes are removed on day 7, and the weight differences between two corresponding lymph nodes are determined. The results are expressed as the inhibition of lymph node enlargement (given in percent) comparing the lymph node weight differences in the experimental groups to the weight difference between the corresponding lymph nodes from a group of animals left untreated with a test compound. In this assay, an inhibition of 100% is obtained with compound of Example 29 when administered at a dose of 30 mg/kg/day bid.
# [7] = target: Human recombinant PKCβ1 (Homo sapiens, UniProt P05771); experiment: Protein Kinase Cβ1 Assay
# Description: as §1
# [8] = target: Human recombinant PKCθ (Homo sapiens, UniProt Q04759); experiment: Protein Kinase C θ Assay
# Description: as §1
IC50 [1] [nM],IC50 [2] [nM],IC50 [3] [nM],IC50 [4] [nM],IC50 [5] [nM],IC50 [7] [nM],IC50 [8] [nM],SMILES,inhibition of lymph node enlargement [6] [%]
27.4,28,20,4.3,20,–,–,Cc1c(Cl)nc(N2CCN(C)CC2)nc1C1=C(c2c[nH]c3ccccc23)C(=O)NC1=O,100
–,–,–,–,–,19.6,6.8,CN1CCN(c2nc(C3=C(c4c[nH]c5ccccc45)C(=O)NC3=O)cc(C(F)(F)F)n2)CC1,–
